Molecules are shown by their SMILES. The list shows a part of the results, in another mix than the full data. Some of these compounds have results that are not shown, active ones among them. Activity calls are given as the source filed them. Cut-off read from the data, not from the text of the source: active = inhibition above about 40%; inactive = the rest.

By UniProt entry, the sequences of proteins in these tests, tags left out. Residues count along the entry.
UniProt P00748, 20-372 limits assumed: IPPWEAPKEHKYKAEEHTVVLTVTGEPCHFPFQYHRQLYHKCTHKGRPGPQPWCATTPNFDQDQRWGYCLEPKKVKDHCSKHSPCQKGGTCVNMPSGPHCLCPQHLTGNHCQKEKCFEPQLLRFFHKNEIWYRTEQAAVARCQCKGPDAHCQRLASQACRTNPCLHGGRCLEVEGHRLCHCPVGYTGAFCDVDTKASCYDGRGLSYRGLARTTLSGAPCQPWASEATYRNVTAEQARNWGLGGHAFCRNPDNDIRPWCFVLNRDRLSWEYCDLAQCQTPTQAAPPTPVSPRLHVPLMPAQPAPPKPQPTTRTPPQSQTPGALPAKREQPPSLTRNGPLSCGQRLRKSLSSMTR
UniProt P00748, 373-615 limits assumed: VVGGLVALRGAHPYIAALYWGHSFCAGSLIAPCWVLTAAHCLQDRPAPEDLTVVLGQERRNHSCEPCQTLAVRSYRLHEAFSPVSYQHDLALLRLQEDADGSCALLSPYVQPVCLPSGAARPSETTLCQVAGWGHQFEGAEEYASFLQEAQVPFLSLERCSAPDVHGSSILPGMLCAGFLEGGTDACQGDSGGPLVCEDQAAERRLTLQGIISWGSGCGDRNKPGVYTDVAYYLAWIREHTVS

The target in the test is Coagulation factor XII (Homo sapiens) (UniProt P00748). Briefly: human FXIIa protease inhibitors, primary screen, biochemical, 1536-well (AID 800).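 Note: 0% = enzyme with no compound and 100% = blank without enzyme.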 The conditions noted are these: purified FXIIa, Boc-QGR-AMC fluorogenic substrate, 2 h; at 5 µM; stronger effect = higher value.
As usually defined, the inhibition is the drop in the measured response relative to a control, in per cent. For the compound `CCN1CCCC(OC(=O)C2(O)c3ccccc3C=Cc3ccccc32)C1` (stereo unspecified), the inhibition was inactive: 25.6%.

On to `C=CCN1CCN(CCOC(=O)C(O)(c2ccccc2)c2ccccc2)CC1`, for which the inhibition was inactive: 9.5%.

In the case of `CN(C)C1CCCC1OC(=O)C(O)(c1ccccc1)c1ccccc1` (stereo unspecified), the inhibition is inactive: 8.11%.

Turning to `Cc1ccccc1C(=O)NCC1(N2CCCCC2)CCCCC1`, the inhibition is inactive: 6.72%.

In the case of `CCN(CC)CC(C)C(C)OC(=O)C(O)(c1ccccc1)c1ccccc1` (stereo unspecified), the inhibition was inactive: 1.75%.

In the case of `CC(C)N1C(=O)CC2(CCN(CCOC(=O)C(O)(c3ccccc3)c3ccccc3)CC2)C1=O`, the inhibition is inactive: 15.1%.

In the case of `O=C(NCC1(N2CCCCC2)CCCCC1)c1cc([N+](=O)[O-])ccc1Cl`, the inhibition is inactive: 4.68%.

Consider `CN(C)c1cccc(C(=O)NCC2(N(C)C)CCCCC2)c1`, for which the inhibition is inactive: 8.36%.

On to `COc1ccc(Br)c(C(=O)NCC2(N3CCCCC3)CCCCC2)c1`, for which the inhibition is inactive: 3.36%.

`O=C(OC1CN2CCC1CC2)C(CO)(c1ccccc1)c1ccccc1` (stereo unspecified): the inhibition is inactive: 2.55%.

`COc1cccc(C(=O)NCC2(N3CCCCC3)CCCCC2)c1`: the inhibition is inactive: 2.19%.

(Values after PubChem BioAssay AID800 (PCMD, 2007).)
